From USRE42700E1, “Induction of apoptosis in cancer cells” (Sanford-Burnham Medical Research Institute, priority 2001, dated 2011)

Tested on: M07e or patient leukemia cells
Assay: effect of kinase inhibitors on 3-Cl-AHPC-mediated apoptosis
Format: cell-based, human

## O=[N+]([O-])c1ccc(-c2nc(-c3ccncc3)c(-c3ccc(F)cc3)[nH]2)cc1 [PD169316]
  effect on 3-Cl-AHPC-mediated apoptosis: did not inhibit or enhance 3-Cl-AHPC-mediated apoptosis
